Laboratory results reported in IntAct's records for PubMed 16626738.

B1: G/T mismatch-specific thymine DNA glycosylase (Homo sapiens), Q13569 (parent)
chain: MEAENAGSYSLQQAQAFYTFPFQQLMAEAPNMAVVNEQQMPEEVPAPAPAQEPVQEAPKGRKRKPRTTEPKQPVEPKKPVESKKSGKSAKSKEKQEKITDTFKVKRKVDRFNGVSEAELLTKTLPDILTFNLDIVIIGINPGLMAAYKGHHYPGPGNHFWKCLFMSGLSEVQLNHMDDHTLPGKYGIGFTNMVERTTPGSKDLSSKEFREGGRILVQKLQKYQPRIAVFNGKCIYEIFSKEVFGVKVKNLEFGLQPHKIPDTETLCYVMPSSSARCAQFPRAQDKVHYYIKLKDLRDQLKGIERNMDVQEVQYTFDLQLAQEDAKKMAVKEEKYDPGYEAAYGGAYGENPCSSEPCGFSSNGLIESVELRGESAFSGIPNGQWMTQSFTDQIPSFSNHCGTQEQEEESHA

Variants of: B1
Conditions: with sumo2_human SUMO2

effect of a mutation on the interaction | Variant
disrupting interaction strength | MEAENAGSYSLQQAQAFYTFPFQQLMAEAPNMAVVNEQQMPEEVPAPAPAQEPVQEAPKGRKRKPRTTEPKQPVEPKKPVESKKSGKSAKSKEKQEKITDTFKVKRKVDRFNGVSEAELLTKTLPDILTFNLDIVIIGINPGLMAAYKGHHYPGPGNHFWKCLFMSGLSEVQLNHMDDHTLPGKYGIGFTNMVERTTPGSKDLSSKEFREGGRILVQKLQKYQPRIAVFNGKCIYEIFSKEVFGVKVKNLEFGLQPHKIPDTETLCYVMPSSSARCAQFPAAQDKVHYYIKLKDLRDQLKGIERNMDVQEVQYTFDLQLAQEDAKKMAVKEEKYDPGYEAAYGGAYGENPCSSEPCGFSSNGLIESVELRGESAFSGIPNGQWMTQSFTDQIPSFSNHCGTQEQEEESHA [R281A]
with no effect | MEAENAGSYSLQQAQAFYTFPFQQLMAEAPNMAVVNEQQMPEEVPAPAPAQEPVQEAPKGRKRKPRTTEPKQPVEPKKPVESKKSGKSAKSKEKQEKITDTFKVKRKVDRFNGVSEAELLTKTLPDILTFNLDIVIIGINPGLMAAYKGHHYPGPGNHFWKCLFMSGLSEVQLNHMDDHTLPGKYGIGFTNMVERTTPGSKDLSSKEFREGGRILVQKLQKYQPRIAVFNGKCIYEIFSKEVFGVKVKNLEFGLQPHKIPDTETLCYVMPSSSARCAQFPRAQDKVHYYIKLKDLRDQLKGIERNMDVQEVQYTFDLQLAQEAAKKMAVKEEKYDPGYEAAYGGAYGENPCSSEPCGFSSNGLIESVELRGESAFSGIPNGQWMTQSFTDQIPSFSNHCGTQEQEEESHA [D323A]
with no effect | MEAENAGSYSLQQAQAFYTFPFQQLMAEAPNMAVVNEQQMPEEVPAPAPAQEPVQEAPKGRKRKPRTTEPKQPVEPKKPVESKKSGKSAKSKEKQEKITDTFKVKRKVDRFNGVSEAELLTKTLPDILTFNLDIVIIGINPGLMAAYKGHHYPGPGNHFWKCLFMSGLSEVQLNHMDDHTLPGKYGIGFTNMVERTTPGSKDLSSKEFREGGRILVQKLQKYQPRIAVFNGKCIYEIFSKEVFGVKVKNLEFGLQPHKIPDTETLCYVMPSSSARCAQFPRAQDKVHYYIKLKDLRDQLKGIERNMDVQEVQYTFDLQGAQEDAKKMAVKEEKYDPGYEAAYGGAYGENPCSSEPCGFSSNGLIESVELRGESAFSGIPNGQWMTQSFTDQIPSFSNHCGTQEQEEESHA [L319G]
